The experiment addresses T1, human SNRNP200^395-2136–PRPF8^RH-JM complex (human, UniProt O75643 395-2136; Q6P2Q9 1760-2335).
T1 construct: human PRPF8 C-terminal fragment with the RH and JM domains, residues 1760-2335, as m9; source: Sf9 cells (baculovirus), co-produced, purified (Ni-NTA, TEV cleavage, second Ni-NTA, SEC); not shown: His10, N-terminal, cleaved
Description: SEC; analytical SEC, Superdex 200 Increase PC3.2/30, 20 mM Tris-HCl pH 7.5, 250 mM NaCl, 0.5 mM DTT; proteins mixed in equimolar ratios, 30 min on ice; fractions analyzed by SDS-PAGE. Particulars: both partners purified. (In general: SEC sorts molecules by how far they enter the pores of the column.)

Sequences of proteins named here, by UniProt entry; tags and fusion partners are left off. Residues count along the entry.
UniProt O75643, 395-2136, chain 1 of 2: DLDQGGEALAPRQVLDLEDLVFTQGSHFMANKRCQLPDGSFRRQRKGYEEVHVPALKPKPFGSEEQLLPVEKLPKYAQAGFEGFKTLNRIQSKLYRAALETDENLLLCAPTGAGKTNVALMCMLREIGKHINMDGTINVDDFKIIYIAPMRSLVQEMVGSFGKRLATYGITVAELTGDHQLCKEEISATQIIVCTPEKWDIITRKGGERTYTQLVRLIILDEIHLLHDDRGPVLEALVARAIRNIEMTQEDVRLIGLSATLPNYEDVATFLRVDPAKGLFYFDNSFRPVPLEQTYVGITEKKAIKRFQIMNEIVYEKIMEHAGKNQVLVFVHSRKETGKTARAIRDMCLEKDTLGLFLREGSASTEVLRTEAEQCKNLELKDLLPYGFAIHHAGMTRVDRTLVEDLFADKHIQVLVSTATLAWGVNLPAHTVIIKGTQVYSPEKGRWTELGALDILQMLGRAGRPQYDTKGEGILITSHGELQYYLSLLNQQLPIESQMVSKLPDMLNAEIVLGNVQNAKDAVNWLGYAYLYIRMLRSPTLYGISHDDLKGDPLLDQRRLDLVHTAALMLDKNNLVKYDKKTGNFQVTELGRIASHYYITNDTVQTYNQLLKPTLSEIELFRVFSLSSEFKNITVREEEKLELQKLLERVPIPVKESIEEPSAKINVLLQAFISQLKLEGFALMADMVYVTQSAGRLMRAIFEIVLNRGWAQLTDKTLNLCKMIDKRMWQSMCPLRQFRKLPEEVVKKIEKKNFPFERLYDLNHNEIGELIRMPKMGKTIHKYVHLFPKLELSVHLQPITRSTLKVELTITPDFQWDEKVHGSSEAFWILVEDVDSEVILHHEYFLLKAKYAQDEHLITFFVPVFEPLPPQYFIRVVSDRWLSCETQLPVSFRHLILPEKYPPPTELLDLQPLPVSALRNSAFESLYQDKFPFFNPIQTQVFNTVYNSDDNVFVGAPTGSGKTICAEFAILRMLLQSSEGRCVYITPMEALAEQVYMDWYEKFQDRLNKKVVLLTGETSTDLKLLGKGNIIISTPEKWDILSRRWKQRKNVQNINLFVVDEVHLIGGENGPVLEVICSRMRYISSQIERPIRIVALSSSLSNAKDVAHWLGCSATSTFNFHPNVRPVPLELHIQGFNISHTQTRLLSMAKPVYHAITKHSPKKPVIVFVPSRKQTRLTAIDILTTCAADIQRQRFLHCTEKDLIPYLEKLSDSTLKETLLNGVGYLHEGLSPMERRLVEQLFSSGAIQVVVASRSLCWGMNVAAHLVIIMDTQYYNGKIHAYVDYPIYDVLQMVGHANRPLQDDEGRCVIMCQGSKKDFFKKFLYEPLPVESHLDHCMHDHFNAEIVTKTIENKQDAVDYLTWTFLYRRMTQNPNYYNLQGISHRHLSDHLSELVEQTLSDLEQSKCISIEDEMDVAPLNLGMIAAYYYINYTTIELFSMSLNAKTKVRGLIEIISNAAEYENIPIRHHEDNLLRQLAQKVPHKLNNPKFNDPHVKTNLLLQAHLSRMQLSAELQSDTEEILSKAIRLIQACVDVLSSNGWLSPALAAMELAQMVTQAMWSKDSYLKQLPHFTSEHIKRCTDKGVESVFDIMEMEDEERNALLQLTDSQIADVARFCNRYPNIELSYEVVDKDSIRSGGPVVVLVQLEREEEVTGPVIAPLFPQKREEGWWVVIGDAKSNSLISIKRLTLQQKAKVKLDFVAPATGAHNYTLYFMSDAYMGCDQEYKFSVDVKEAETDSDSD

B1: human AAR2 (natural protein, UniProt Q9Y312 1-384, looked up)
chain: MAAVQMDPELAKRLFFEGATVVILNMPKGTEFGIDYNSWEVGPKFRGVKMIPPGIHFLHYSSVDKANPKEVGPRMGFFLSLHQRGLTVLRWSTLREEVDLSPAPESEVEAMRANLQELDQFLGPYPYATLKKWISLTNFISEATVEKLQPENRQICAFSDVLPVLSMKHTKDRVGQNLPRCGIECKSYQEGLARLPEMKPRAGTEIRFSELPTQMFPEGATPAEITKHSMDLSYALETVLNKQFPSSPQDVLGELQFAFVCFLLGNVYEAFEHWKRLLNLLCRSEAAMMKHHTLYINLISILYHQLGEIPADFFVDIVSQDNFLTSTLQVFFSSACSIAVDATLRKKAEKFQAHLTKKFRWDFAAEPEDCAPVVVELPEGIEMG
notes: human AAR2; The cleavage of the tag follows from the sentence that AAR2 1-364 was purified as AAR2 but with omission of the TEV cleavage step; also called WT AAR2; hAAR2; source: pFL vector, codon-optimized synthetic gene; purified, obtained as described previously (Santos et al., 2015); not shown: His10, N-terminal, cleaved
For B1, the binding result is “binds”.

These data come from paper PMC9629490 (Acta Crystallographica. Section D, Structural Biology, 2022).
